These results are taken from publication PMC4576209, “Biochemical characterization of FIKK8 – A unique protein kinase from the malaria parasite Plasmodium falciparum and other apicomplexans” (Molecular and Biochemical Parasitology, 2015).

The series relates to Nc1ncnc2c1ncn2[C@@H]1O[C@H](COP(=O)(O)OP(=O)(O)OP(=O)(O)O)[C@@H](O)[C@H]1O. Description: purified protein. The following applies: peptide substrate; MgCl2 stated only for autophosphorylation.

As a reminder, the Km is the substrate concentration at which the rate is half of its maximum. One may read the kcat as the number of substrate molecules converted per active site and unit of time at saturation. By kcat/Km is commonly meant the second-order rate constant that governs catalysis at low substrate concentration. In the case of PfFIKK8l (Plasmodium falciparum 3D7), the Km is 11.0 ± 0.8 µM, the kcat is 0.267 ± 0.005 s⁻¹ and the kcat/Km worked out at 26700 M⁻¹ s⁻¹.
